Test results reported in patent US6872733B2, “Benzimidazolone compounds” (dated 2005).

Sequences of proteins named here, by UniProt entry; tags and fusion partners are left off. A change or cut given only in a name is not applied to a line headed by its entry.
UniProt P35372, whole entry, looked up: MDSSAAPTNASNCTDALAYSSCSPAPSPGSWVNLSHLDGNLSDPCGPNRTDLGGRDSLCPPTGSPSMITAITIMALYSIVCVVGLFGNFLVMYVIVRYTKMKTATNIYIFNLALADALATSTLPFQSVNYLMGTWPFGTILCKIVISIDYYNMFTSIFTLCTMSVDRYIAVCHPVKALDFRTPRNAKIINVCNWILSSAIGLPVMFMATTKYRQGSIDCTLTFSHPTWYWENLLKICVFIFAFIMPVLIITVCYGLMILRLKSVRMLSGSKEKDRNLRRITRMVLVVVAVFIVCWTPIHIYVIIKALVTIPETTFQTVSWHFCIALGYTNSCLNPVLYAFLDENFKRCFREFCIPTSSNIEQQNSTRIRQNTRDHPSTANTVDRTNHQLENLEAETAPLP
UniProt P41146: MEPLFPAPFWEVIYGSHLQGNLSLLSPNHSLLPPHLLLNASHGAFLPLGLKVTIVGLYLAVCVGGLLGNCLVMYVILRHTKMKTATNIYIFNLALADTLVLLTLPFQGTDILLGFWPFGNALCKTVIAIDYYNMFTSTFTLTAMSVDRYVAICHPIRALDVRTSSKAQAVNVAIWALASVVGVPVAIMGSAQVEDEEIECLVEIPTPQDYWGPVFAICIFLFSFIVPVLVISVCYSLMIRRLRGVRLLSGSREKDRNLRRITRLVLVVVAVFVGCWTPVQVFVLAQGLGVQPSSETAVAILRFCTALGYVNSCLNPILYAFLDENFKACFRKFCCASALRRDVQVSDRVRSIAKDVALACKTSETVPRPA

Legend:
Mu opioid receptor = Mu opioid receptor (Homo sapiens, UniProt P35372); assay: Affinity at the μ receptor ([35S]GTPγS binding assay on membranes); conditions: read-out: Mu Receptor Affinity calc Ki; Mu opioid receptor membrane
[1] = biological target: human opioid receptor-like receptor (ORL-1) (Homo sapiens, UniProt P41146); conditions: read-out: Nociceptin Affinity calc Ki; membranes from recombinant HEK-293 cells expressing human ORL-1

Row | Compound | Ki (Mu opioid receptor) [nM] | Ki [1] [nM]
1 | CCN1C(=O)N(C2CCN(C3CCC4CCCCC4C3)CC2)[C@@H]2CCCC[C@H]21 (relative stereo) | 279 | 184
2 | O=C1N[C@@H]2CCCC[C@H]2N1C1CCN(Cc2ccc3ccccc3c2)CC1 (relative stereo) | 1240 | 1260
3 | CCN1C(=O)N(C2CCN(C3CCCCCCC3)CC2)[C@@H]2CCCC[C@H]21 (relative stereo) | 909 | 111
